Results from patent publication US4159334A, “Medicinal preparation with an antiinflammatory, analgesic and antipyretic effect” (priority 1977, dated 1979).

Assays:
[1] = Aerosol-induced edema of paw in mice (acute test); format: in vivo; conditions: acetylsalicylic acid = 1
From the text: (§1) The proposed preparation was examined pharmacologically.
Aerosol-induced edema of
paw in mice (acute test)

[2] = Aerosol-induced edema of paw in rats (subacute test), exudative process; format: in vivo; conditions: acetylsalicylic acid = 1
From the text: Acetylsalicylic acid under the same test conditions produces a similar effect, but with a dose 30 times higher than the dose of the proposed preparation.
Aerosol-induced edeima of
ry paw in rats (subacute test)

[3] = acute toxicity to anti-edematous action ratio (LD50/ED50) in mice; format: in vivo
[4] = phenamine hyperthermia in mice; format: in vivo; conditions: acetylsalicylic acid = 1
From the text: | Phenamine hyperthermia in

[5] = painful irritation of rat's paw with electric current; format: in vivo, rats; conditions: acetylsalicylic acid = 1
[6] = acute toxicity in mice (oral, intraperitoneal); conditions: mouse, in vivo
[7] = carrageenin and aerosol-induced inflammatory edema, acute tests in mice; format: in vivo
From the text: as §1

[8] = parameters: species or system animals; conditions: in vivo
[9] = acetic acid "writhing" in mice; format: in vivo; conditions: acetylsalicylic acid = 1
yeast fever in rats = format: in vivo; conditions: acetylsalicylic acid = 1
[10] = tail burning test in mice; format: in vivo; conditions: acetylsalicylic acid = 1
Procedure: For example, the preparation introduced orally to mice in 10 and 20 mg/kg doses reduced the reaction of the mice to a thermal irritant by 47-75% an hour after administration. Acetylsalicylic acid in 40-300 mg/kg doses causes an effect equal to 37-87%.

Compound: OC(Nc1nccs1)C(Cl)(Cl)Cl (stereo not shown) [proposed preparation, 2,2,2-trichloro-1-(2-thiazolylamino)-ethanol]
- Relative activity, antiinflammatory, aerosol-induced edema of paw in mice (acute test) [1]: 3.2
- Relative activity, antiinflammatory, aerosol-induced edema of paw in rats (subacute test) [2]: 30.0
- therapeutic range relative to acetylsalicylic acid ([3]; Table 2): double therapeutic range
- Relative therapeutic index, acute toxicity to anti-edematous action ratio (LD50/ED50) ([3]; mice, oral administration, acetylsalicylic acid = 1): 2
- Relative activity, antipyretic, phenamine hyperthermia in mice [4]: 2.5
- Relative activity, analgesic, painful irritation of rat's paw with electric current [5]: 15
- selectivity ratio [6]: 1.48
- anti-exudative action relative to acetylsalicylic acid [7]: three times superior to the action of acetylsalicyclic acid
- function of the kidneys [8]: does not affect
- function of the liver [8]: does not affect
- peripheral blood composition [8]: does not affect
- secretory and motor function of the gastrointestinal tract [8]: nor does it essentially influence
- weight and structure of internal organs [8]: nor does it essentially influence the secretory and motor function of the gastrointestinal tract, or cause changes in the weight and structure
- Relative activity, analgesic, acetic acid "writhing" in mice [9]: 3.5
- Relative activity, antipyretic, yeast fever in rats (yeast fever in rats): 3
- Relative activity, analgesic, burning tail of mice [10]: 9
